Patent publication US5569670A, “Combination medications containing alpha-lipoic acid and related” (Asta Medica Aktiengesellschaft, priority 1992, dated 1996)
Like-named read-outs stand apart in the source and are kept apart here.

What was measured:
rat = assay type: in vivo
mouse = assay type: in vivo

Substance: Vitamin E
- LD50 (rat; i.v.): > 1500 mg/kg
- LD50 (rat; p.o.): > 5000 mg/kg
- LD50 (mouse; i.v.): > 2100 mg/kg
- LD50 (mouse; p.o.): > 50,000 mg/kg
